In test [1] the target is GDP-bound KRAS protein (aa 1-169) G12C/C118A (Homo sapiens (Human), UniProt P01116, C118A/G12C). As to the kind of experiment: Coupled Nucleotide Exchange Assay (KRAS G12C). Format: biochemical. The method, then: (§1) Coupled Nucleotide Exchange Assay: Purified GDP-bound KRAS protein (aa 1-169), containing either G12C or G12D, as well as C118A amino acid substitutions and an N-terminal His-tag, was pre-incubated in assay buffer (25 mM HEPES pH 7.4, 10 mM MgCl2, and 0.01% Triton X-100) with a compound dose-response titration for either 5 min or 20 hours (see Table 15). Following compound pre-incubation, purified SOS protein (aa 564-1049) and GTP (Roche 10106399001) were added to the assay wells and incubated for an additional 30 min. To determine the extent of inhibition of SOS-mediated nucleotide exchange, purified GST-tagged cRAF (aa 1-149), nickel chelate AlphaLISA acceptor beads (PerkinElmer AL108R), and AlphaScreen glutathione donor beads (PerkinElmer 6765302) were added to the assay wells and incubated for 10 minutes. The assay plates were then read on a PerkinElmer EnVision Multilabel Reader, using AlphaScreen® technology, and data were analyzed using a 4-parameter logistic model to calculate IC50 values.

The chains behind the UniProt entries cited, without tags or fusion partners. A line that says so, or that is headed by a name, gives the form on record, which may keep a tag or linker. Residues count along the entry.
UniProt P01116, 1-164 with tags or gaps C118A/G12C limits assumed: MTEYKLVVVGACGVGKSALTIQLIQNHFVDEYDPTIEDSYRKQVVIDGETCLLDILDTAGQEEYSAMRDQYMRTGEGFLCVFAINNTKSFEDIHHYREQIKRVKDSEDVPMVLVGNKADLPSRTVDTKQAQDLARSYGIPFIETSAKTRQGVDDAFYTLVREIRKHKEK
UniProt P01116, 1-164 with tags or gaps C118A/G12D limits assumed: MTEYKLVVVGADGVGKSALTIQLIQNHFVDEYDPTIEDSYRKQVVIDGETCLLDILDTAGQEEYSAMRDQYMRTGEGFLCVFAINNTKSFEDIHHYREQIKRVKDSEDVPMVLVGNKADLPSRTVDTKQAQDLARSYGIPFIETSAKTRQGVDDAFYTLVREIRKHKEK

Test [2] concerns the target GDP-bound KRAS protein (aa 1-169) G12D/C118A (Homo sapiens (Human), UniProt P01116, C118A/G12D). As to the kind of experiment: Coupled Nucleotide Exchange Assay (KRAS G12D). Format: biochemical. As to conditions: read-out: GDP KRAS G12D 20 h Coupled Exchange IC50 IP; 20 h compound pre-incubation. On the procedure:
as §1

SMILES strings stand for the structures. Where two headings read alike, the source gives them in different places.

Turning to `Cc1ccnc(C(C)C)c1-n1c(=O)nc(N2CCN(C(=O)COc3c(F)ccc(F)c3F)C[C@@H]2C)c2cc(Cl)c(-c3ccccc3F)nc21`, the IC50 is 38.3 µM in test [1] (read-out: GDP KRAS G12C 5 min Coupled Exchange IC50 IP, 5 min compound pre-incubation); 1.84 µM in test [1] (read-out: GDP KRAS G12C 20 h Coupled Exchange IC50 IP, 20 h compound pre-incubation); above 250 µM in test [2].

The values above are taken from patent US20240190862A1 (AMGEN INC., priority 2019, published 2024).
